Data reported in patent US9598431B1, “Compounds useful for inhibiting ROR-gamma-t” (Eli Lilly and Company, priority 2015, dated 2017).
Where two headings read alike, the source gives them in different places.

Legend:
[1] = tested on: PBMC; assay: cells; conditions: Homo sapiens, 48 h, read-out: Cell TiterGlo Viability (EC50)
[2] = tested on: PBMC; conditions: read-out: Cell TiterGlo Viability (EC50); stimulated human PBMC, 48 hours, percent cell death

SMILES	EC50 [1]	EC50 [2]
CCS(=O)(=O)c1ccc(CNC(=O)c2cc3c(s2)C2(CCN(C(C)c4cnc(C(F)(F)F)nc4)CC2)O[C@H](C)C3)nc1 (single isomer, unassigned; isomer 1) [Example 4, (5R′)—N-{[5-(Ethylsulfonyl)pyridine-2-yl]methyl}-5′-methyl-1-{1-[2-(trifluoromethyl)pyrimidin-5-yl]ethyl}-4′,5′-dihydrospiro[piperidine-4,7′thieno[2,3-C]pyran]-2′-carboxamide isomer 1]	> 1 µM	–
CCS(=O)(=O)c1ccc(CNC(=O)c2cc3c(s2)C2(CCN(C(C)c4cnc(C(F)(F)F)nc4)CC2)O[C@H](C)C3)nc1 (single isomer, unassigned; isomer 2) [Example 5, (5R′)—N-{[5-(Ethylsulfonyl)pyridine-2-yl]methyl}-5′-methyl-1-{1-[2-(trifluoromethyl)pyrimidin-5-yl]ethyl}-4′,5′-dihydrospiro[piperidine-4,7′thieno[2,3-C]pyran]-2′-carboxamide isomer 2]	–	> 1 µM
CCS(=O)(=O)c1ccc(CNC(=O)c2cc3c(s2)C2(CCN(C(C)c4cnc(C(F)(F)F)nc4)CC2)OC(C)C3)nc1 (centres unmarked) [Example 1, N-{[5-(Ethylsulfonyl)pyridine-2-yl]methyl}-5′-methyl-1-{1-[2-(trifluoromethyl)pyrimidin-5-yl]ethyl}-4′,5′-dihydrospiro[piperidine-4,7′thieno[2,3-C]pyran]-2′-carboxamide]	> 1 µM	–
CCS(=O)(=O)c1ccc(CNC(=O)c2cc3c(s2)C2(CCN([C@@H](C)c4cnc(C(F)(F)F)nc4)CC2)O[C@@H](C)C3)nc1 [Example 2, (5S′)—N-{[5-(Ethylsulfonyl)pyridine-2-yl]methyl}-5′-methyl-1-{(1S)-1-[2-(trifluoromethyl)pyrimidin-5-yl]ethyl}-4′,5′-dihydrospiro[piperidine-4,7′thieno[2,3-C]pyran]-2′-carboxamide]	> 1 µM	–
CCS(=O)(=O)c1ccc(CNC(=O)c2cc3c(s2)C2(CCN([C@H](C)c4cnc(C(F)(F)F)nc4)CC2)O[C@@H](C)C3)nc1 [Example 3, (5S′)—N-{[5-(Ethylsulfonyl)pyridine-2-yl]methyl}-5′-methyl-1-{(1R)-1-[2-(trifluoromethyl)pyrimidin-5-yl]ethyl}-4′,5′-dihydrospiro[piperidine-4,7′thieno[2,3-C]pyran]-2′-carboxamide]	> 1 µM	–
